This is an account of results in patent US20050196744A1 (priority 2004, published 2005).

Chains of the proteins cited; added tags and fusions are not shown.
UniProt P23977, whole entry D79E: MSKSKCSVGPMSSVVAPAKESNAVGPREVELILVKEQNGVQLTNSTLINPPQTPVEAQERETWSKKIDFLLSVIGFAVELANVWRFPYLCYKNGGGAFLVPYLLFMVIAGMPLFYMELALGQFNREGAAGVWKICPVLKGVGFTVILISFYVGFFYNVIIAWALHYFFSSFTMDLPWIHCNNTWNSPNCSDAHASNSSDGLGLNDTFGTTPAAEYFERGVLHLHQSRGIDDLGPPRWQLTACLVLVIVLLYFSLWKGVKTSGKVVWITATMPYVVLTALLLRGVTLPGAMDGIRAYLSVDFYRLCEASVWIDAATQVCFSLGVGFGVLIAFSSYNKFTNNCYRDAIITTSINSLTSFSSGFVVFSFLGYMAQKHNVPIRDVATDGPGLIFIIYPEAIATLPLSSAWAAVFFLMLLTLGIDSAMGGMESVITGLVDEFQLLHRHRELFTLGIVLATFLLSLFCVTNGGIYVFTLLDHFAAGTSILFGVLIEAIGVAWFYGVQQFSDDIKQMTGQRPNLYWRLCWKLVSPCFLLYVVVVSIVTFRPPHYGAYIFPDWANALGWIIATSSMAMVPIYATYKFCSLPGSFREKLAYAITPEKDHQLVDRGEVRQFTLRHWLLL

Each structure is given as a SMILES string.

The target in assay [1] is T1, D79E DAT (Rattus norvegicus, UniProt P23977, D79E).
T1 construct: expressed in transfected cells; host or cells: CHO-K1, stably transfected; intact attached monolayers
The assay can be described thus: [3H]-dopamine uptake and uptake inhibition, CHO cells stably expressing D79E DAT. Type of assay: cell-based. The settings on record: comparison of Ki values.

Assay [2] deals with T1, D79E DAT. Nature of the assay: [3H]-WIN 35,428 binding / displacement at CHO cells stably expressing D79E DAT. The settings on record: comparison of Ki values. How it is done: Ligand binding assays. […] Nonradioactive competitor concentrations were as indicated above for uptake inhibition. […] Membranes were aspirated with a Brandel harvester onto GF/B glass-fiber filter paper, washed with 3×5 ml cold binding buffer, and the filters measured for radioactivity via scintillation counting. For all binding assays, data were analyzed with the GraphPad Prism 2.0 software to obtain Kd, Ki and Bmax values.

As to `C[C@H](N)Cc1ccccc1` [(+)-Amphetamine, S(+)-amphetamine], the “loss of dopamine uptake inhibition potency caused by the D79E mutation (D79E vs WT DAT)” value at D79E DAT [1] is recorded as 5 fold. At D79E DAT [2], the “loss of binding affinity ([3H]-WIN 35,428 displacement) caused by the D79E mutation (D79E vs WT DAT)” value is 9 fold. Turning to `C[C@@H](N)Cc1ccccc1` [(−)-Amphetamine, R(−)-amphetamine], the “loss of dopamine uptake inhibition potency caused by the D79E mutation (D79E vs WT DAT)” value on D79E DAT [1] is recorded as “not significantly affected”.
